For data set [1], the target named is Adenosine receptor A1 (Mus musculus) (UniProt Q60612). Kind of data set: Displacement of [125I]I-AB-MECA from mouse A1 adenosine receptor expressed in HEK293 cells at 10 uM after 60 mins by liquid scintillation counting. In general terms: Loss of bound radioactivity is the signal in a displacement assay; it reports binding, not function.
In data set [2] the test system is Plasma. Kind of data set: Fraction unbound in human plasma at 10 uM after 5 hrs by LC-MS/MS analysis. The data set is classed as ADME, cell-free.
The test system of data set [3] is Plasma. Kind of data set: Fraction unbound in rat plasma at 10 uM after 5 hrs by LC-MS/MS analysis. The format is ADME, cell-free.
Data set [4] deals with Plasma. Kind of data set: Fraction unbound in mouse plasma at 10 uM after 5 hrs by LC-MS/MS analysis. The format is ADME, cell-free.
Data set [5] addresses Cytochrome P450 1A2 (Homo sapiens, UniProt P05177). Kind of data set: Inhibition of CYP1A2 in human microsomes preincubated for 5 mins before substrate addition measured after 10 mins by LC/MS/MS analysis. The data set is classed as ADME. In a few lines:
(§1)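 Human CYP isozyme inhibition screened at 10 μM. An IC50 was determined where inhibition was measurable. Values are the average of n = 2.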

Protein sequences, listed by entry. Tags and fused reporters are not part of them.
UniProt Q60612, whole entry: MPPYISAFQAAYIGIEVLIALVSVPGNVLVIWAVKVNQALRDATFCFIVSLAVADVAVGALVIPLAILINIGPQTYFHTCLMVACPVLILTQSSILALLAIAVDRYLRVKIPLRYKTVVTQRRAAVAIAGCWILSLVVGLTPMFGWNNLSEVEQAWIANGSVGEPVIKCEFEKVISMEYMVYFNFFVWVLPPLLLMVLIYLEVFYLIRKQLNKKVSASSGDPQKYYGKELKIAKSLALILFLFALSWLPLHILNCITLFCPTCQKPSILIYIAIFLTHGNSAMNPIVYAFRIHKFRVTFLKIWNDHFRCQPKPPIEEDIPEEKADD
UniProt P05177, whole entry: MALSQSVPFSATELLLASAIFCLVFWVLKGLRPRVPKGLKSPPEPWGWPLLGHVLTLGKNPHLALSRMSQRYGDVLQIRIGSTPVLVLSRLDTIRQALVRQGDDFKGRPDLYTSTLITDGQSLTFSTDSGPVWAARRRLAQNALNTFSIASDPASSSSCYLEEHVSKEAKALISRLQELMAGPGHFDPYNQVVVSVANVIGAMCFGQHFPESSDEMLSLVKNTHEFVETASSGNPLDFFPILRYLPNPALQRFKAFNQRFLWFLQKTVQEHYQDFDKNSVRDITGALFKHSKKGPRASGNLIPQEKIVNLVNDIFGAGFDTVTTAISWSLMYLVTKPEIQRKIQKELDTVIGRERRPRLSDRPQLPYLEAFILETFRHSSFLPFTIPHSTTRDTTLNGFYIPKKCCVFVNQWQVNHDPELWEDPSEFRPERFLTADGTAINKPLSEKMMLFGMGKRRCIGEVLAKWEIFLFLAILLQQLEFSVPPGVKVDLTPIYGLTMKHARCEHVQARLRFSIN
UniProt P33261, whole entry: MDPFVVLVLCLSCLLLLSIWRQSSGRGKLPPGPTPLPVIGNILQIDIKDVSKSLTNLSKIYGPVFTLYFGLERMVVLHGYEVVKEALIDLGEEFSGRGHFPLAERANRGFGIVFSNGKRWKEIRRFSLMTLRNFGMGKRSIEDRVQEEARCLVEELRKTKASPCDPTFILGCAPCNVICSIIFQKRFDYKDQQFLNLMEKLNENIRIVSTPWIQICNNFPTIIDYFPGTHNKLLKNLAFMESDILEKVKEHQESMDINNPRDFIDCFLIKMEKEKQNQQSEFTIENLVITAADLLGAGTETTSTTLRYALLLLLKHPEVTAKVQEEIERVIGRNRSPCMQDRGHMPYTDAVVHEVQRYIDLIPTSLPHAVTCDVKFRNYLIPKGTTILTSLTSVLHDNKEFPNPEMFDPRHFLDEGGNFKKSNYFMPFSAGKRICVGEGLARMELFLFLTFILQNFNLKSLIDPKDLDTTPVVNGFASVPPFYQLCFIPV

In data set [6] the target is Cytochrome P450 2C19 (Homo sapiens, UniProt P33261). Kind of data set: Inhibition of CYP2C19 in human microsomes preincubated for 5 mins before substrate addition measured after 10 mins by LC/MS/MS analysis. The format is ADME. In a few lines: as §1

Each structure is given as a SMILES string. A value given as a limit tells only on which side of the number the result lay.

For orientation: inhibition means the change of the read-out against control, counted positive when it falls. Low values mean a response near the control, high ones a response far below the control. The IC50 is the point on the concentration scale where inhibition reaches its midpoint. A high value points to weaker potency in that assay.

The molecule `CNC(=O)[C@@]12C[C@@H]1[C@@H](n1cnc3c(NC)nc(C#Cc4cnccn4)nc31)[C@H](O)[C@@H]2O` gave an inhibition in data set [1] of 57%. Further, the results for the Fu in data set [2], in data set [3] and in data set [4] were 61.2%, 57.5% and 59.1%, respectively.

In turn, `CNC(=O)[C@@]12C[C@@H]1[C@@H](n1cnc3c(NC)nc(C#Cc4ccc(Cl)s4)nc31)[C@H](O)[C@@H]2O` displayed a Fu in data set [4] of 2.75%.

Consider `CNC(=O)[C@@]12C[C@@H]1[C@@H](n1cnc3c(NC)nc(C#Cc4ccco4)nc31)[C@H](O)[C@@H]2O`, for which the IC50 in data set [5] and in data set [6] was greater than 10 µM each time.

Values taken from ChEMBL document CHEMBL3407461 (J Med Chem, 2014).
